Earlier results as cited in patent US6255337A, “Anti-first-pass effect compounds and citrus extract” (Bioavailability Systems, L.L.C., priority 1999, dated 2001).

Conditions: with inhibitors commonly given to humans; in words; cited from earlier work

SMILES: Cc1ncc2n1-c1ccc(Cl)cc1C(c1ccccc1F)=NC2 [midazolam]
- increase of bioavailability by inhibitors: bioavailability is increased by inhibitors
